This is an account of results in patent US20210268004A1, “COMPOSITION CONTAINING BECLOMETHASONE FOR THE PREVENTION AND THE TREATMENT OF BACTERIAL PROSTATITIS AND VAGINITIS” (SOFAR S.P.A., priority 2018, published 2021).

This series deals with colorectal mucosa (epithelial tissue of the human colon reconstructed in 3D). The method, then: The trial was conducted according to the OCSE TG 428-EU approved method used for percutaneous penetration.
Like in the first trial, the test was conducted at 37° C. and relative humidity >90%.
Like in the first phase, the test was conducted at 37° C. and relative humidity >90%.

As for beclomethasone acid [BMP], the “formation of the acid form BMP” value is listed as “very low amounts”.
